The numbers were not newly measured in patent publication US20060025484A1 (priority 2003, published 2006), which cites them from elsewhere.

For data set [1] the following is noted: known for BCNU; cited from earlier work.
The conditions of data set [2]: known for BCNU; cited from earlier work. This is another data set of the same source.

With bis-(2-chloroethyl)-1-nitrosourea, the Solubility in water result in data set [1] is “low solubility in water”. Also, in data set [2], the Pulmonary fibroses entry was “can also cause pulmonary fibroses”; the “Toxicity for bone marrow and lungs” value is “high toxicity for bone marrow and the lungs”.
